Composite z-score and z-score data for eight compounds are collected here from PubChem BioAssay.

The chains behind the UniProt entries cited, without tags or fusion partners. Where a name states a change or a piece, a line headed by the entry shows the natural chain unless it says otherwise.
UniProt P02866, whole entry, looked up: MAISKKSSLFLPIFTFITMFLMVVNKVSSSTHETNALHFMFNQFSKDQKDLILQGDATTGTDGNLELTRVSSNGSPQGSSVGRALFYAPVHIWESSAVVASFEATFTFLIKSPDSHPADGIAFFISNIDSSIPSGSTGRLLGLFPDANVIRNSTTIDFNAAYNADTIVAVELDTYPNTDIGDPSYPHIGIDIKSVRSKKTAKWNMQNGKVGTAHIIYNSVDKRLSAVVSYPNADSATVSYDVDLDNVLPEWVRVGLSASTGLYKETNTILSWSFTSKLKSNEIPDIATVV
UniProt Q05397, whole entry, looked up: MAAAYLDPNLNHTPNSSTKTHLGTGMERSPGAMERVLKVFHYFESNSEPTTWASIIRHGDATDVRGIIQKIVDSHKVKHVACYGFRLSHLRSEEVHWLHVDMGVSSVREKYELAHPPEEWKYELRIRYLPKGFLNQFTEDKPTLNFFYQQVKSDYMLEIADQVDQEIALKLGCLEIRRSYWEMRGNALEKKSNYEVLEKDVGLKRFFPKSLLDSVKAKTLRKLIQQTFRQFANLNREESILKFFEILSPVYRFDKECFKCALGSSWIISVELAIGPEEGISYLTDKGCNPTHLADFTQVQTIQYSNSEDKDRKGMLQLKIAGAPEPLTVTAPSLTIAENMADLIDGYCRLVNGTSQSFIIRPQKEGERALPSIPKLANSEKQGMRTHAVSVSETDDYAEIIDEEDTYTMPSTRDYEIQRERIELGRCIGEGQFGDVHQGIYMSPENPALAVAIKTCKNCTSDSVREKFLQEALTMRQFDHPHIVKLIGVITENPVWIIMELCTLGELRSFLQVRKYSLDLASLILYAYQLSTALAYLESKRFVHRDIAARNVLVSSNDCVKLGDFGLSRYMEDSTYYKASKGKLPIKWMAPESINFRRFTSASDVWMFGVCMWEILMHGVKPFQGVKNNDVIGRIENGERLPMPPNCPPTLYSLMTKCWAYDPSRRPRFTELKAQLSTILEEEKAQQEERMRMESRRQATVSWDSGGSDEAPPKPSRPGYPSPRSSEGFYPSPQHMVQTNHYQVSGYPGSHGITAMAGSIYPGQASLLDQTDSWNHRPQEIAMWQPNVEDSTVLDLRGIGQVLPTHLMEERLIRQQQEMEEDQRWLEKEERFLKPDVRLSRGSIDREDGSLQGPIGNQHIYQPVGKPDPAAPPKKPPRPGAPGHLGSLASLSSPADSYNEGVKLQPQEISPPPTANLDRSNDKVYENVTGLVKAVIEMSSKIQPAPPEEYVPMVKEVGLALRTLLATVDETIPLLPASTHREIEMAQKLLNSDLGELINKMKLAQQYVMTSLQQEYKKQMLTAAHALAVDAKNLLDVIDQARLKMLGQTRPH
UniProt P19883: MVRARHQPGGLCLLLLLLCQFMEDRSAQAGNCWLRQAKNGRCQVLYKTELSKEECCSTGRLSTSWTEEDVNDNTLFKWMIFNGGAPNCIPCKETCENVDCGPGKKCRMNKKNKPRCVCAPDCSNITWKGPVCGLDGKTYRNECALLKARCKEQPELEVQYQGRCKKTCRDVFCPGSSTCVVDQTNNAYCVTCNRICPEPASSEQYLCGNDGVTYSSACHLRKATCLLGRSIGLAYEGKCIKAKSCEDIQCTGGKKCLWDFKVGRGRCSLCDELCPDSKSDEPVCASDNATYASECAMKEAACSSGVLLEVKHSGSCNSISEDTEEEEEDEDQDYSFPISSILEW
UniProt P09038, whole entry, looked up: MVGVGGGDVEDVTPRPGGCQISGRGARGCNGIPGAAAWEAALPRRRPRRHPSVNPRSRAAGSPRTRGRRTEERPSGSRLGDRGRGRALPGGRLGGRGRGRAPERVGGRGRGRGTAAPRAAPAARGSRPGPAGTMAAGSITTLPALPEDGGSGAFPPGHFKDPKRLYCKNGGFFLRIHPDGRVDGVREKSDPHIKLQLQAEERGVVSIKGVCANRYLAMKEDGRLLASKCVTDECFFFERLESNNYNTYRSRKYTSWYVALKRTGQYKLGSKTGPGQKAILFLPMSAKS
UniProt P22629, whole entry, looked up: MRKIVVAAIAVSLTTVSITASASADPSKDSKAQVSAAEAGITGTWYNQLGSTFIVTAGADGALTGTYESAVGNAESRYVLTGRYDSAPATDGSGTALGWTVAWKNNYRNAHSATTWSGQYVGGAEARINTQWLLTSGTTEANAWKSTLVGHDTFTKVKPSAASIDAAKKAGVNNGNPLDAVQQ
UniProt O14656: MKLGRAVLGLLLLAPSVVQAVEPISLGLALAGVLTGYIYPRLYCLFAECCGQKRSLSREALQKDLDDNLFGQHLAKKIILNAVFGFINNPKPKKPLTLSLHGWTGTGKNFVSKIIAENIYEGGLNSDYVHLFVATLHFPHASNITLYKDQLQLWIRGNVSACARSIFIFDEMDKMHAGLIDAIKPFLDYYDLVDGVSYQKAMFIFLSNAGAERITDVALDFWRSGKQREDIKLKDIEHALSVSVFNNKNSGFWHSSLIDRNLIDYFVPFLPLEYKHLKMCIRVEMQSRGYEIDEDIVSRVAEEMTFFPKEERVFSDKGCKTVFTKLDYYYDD

Only a part is listed here, and it is no random draw. Active and inactive are the calls of the source.

The nature of assay [1]: compound binding in COS7 lysate, probe aLAP1, primary screen, cell lysate, small-molecule microarray (AID 1124).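 Also: lysate comes from COS7 cells expressing LAP1 and is applied at 0.3 µg/mL; score merges spot fluorescence near 667 nm with signal-to-noise over triplicate slides.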 Particulars: probe aLAP1, fluorescence, higher = more signal.
The test system of assay [2] is Sam68 (KHDRBS1). The assay can be described thus: Sam68 small-molecule binders, primary screen, biochemical, small-molecule microarray, 635 nm fluorescence (AID 1125).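 Also: score merges 667 nm channel intensity with signal to noise over triplicate slides.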 The settings on record: small-molecule microarray binding, higher = more signal.
In assay [3] the test system is Chordin-like protein 2 (CHRDL2). Briefly: CHRDL2 small-molecule binders, primary screen, biochemical, small-molecule microarray, 635 nm fluorescence (AID 1126).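 Also: printed compound slides probed with Chrdl2 protein at 4 µg/mL for 1 h at 4 C; score merges 667 nm emission intensity with signal to noise over three replicate slides.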 The settings on record: small-molecule microarray binding, fluorescence 635 nm; higher = more signal.
The target of assay [4] is Concanavalin-A (Canavalia ensiformis) (UniProt P02866). Briefly: ConA small-molecule binders, primary screen, artefact control for SMM control protein annotation, biochemical, small-molecule microarray, Alexa647 label, 635 nm (AID 1127).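 Also: z combines 667 nm emission intensity with signal-to-noise across three replicate slides.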 The settings on record: ConA-A647 binding fluorescence, higher = more signal.
Assay [5] in a line: anti-His antibody binders, primary screen, artefact control for SMM control protein annotation, biochemical, small-molecule microarray, 635 nm fluorescence (AID 1128).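 Also: score merges feature fluorescence with signal-to-noise for each printed compound spot.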 The settings on record: anti-His Alexa647 antibody binding, higher = more signal.
Assay [6] addresses Focal adhesion kinase 1 (Homo sapiens) (UniProt Q05397). The assay can be described thus: small-molecule microarray binders of FAK, primary screen, biochemical, 635/667 nm fluorescence, BSA, DTT (AID 1130).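 Also: composite of spot emission at 667 nm and signal to noise over triplicate slides.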 Particulars: PTK2 binding, 635 nm fluorescence, higher = more signal.
The subject of assay [7] is Fibrinogen (Alexa647-labelled). The assay can be described thus: fibrinogen binders on compound microarrays, profiling panel, artefact control for SMM control-protein annotation, biochemical, small-molecule microarray, 635/667 nm fluorescence (AID 1131).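 Also: z-score merges 667 nm fluorescence with per-spot signal-to-noise over triplicate slides.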 The settings on record: fibrinogen-A647 binding fluorescence, higher = more signal.
Assay [8] addresses Follistatin (Homo sapiens) (UniProt P19883). Briefly: follistatin binders on small-molecule microarrays, primary screen, biochemical, small-molecule microarray, 635/667 nm fluorescence (AID 1132). Particulars: FST binding, 635 nm fluorescence, higher = more signal.
In assay [9] the target is Fibroblast growth factor 2 (Homo sapiens) (UniProt P09038). The assay can be described thus: FGF2 binders on small-molecule microarrays, primary screen, biochemical, small-molecule microarray, 635/667 nm fluorescence (AID 1133). The settings on record: small-molecule microarray binding, FGF2, fluorescence 635/667; higher = more signal.
Assay [10] in a line: mitochondrial membrane potential change in A549 cells, profiling panel, cell-based, JC-1 fluorescence, basal, 24 h, 100 nL (AID 1138).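 Also: A549 lung adenocarcinoma cells under basal conditions with no added stimulus; test concentration not given here.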 Particulars: higher = more signal.
Assay [11] relates to Lefty1. The assay can be described thus: Lefty1 binders on small-molecule microarrays, primary screen, biochemical, small-molecule microarray, 635/667 nm fluorescence (AID 1139). The settings on record: small-molecule microarray binding, fluorescence 635/667; higher = more signal.
Assay [12] concerns wheat germ agglutinin (Triticum aestivum), Alexa647-labelled. Briefly: wheat germ agglutinin binders on compound microarrays, profiling panel, artefact control for SMM control-protein annotation, biochemical, small-molecule microarray, 635/667 nm fluorescence (AID 1140).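 Also: score merges 667 nm feature emission with signal to noise over triplicate slides.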 The settings on record: WGA-A647 binding, 635 nm fluorescence, higher = more signal.
The subject of assay [13] is Wnt5a (protein binding on small-molecule microarray). Briefly: Wnt5a binders on small-molecule microarray, primary screen, biophysical, 635/667 nm fluorescence (AID 1142).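 Also: fluorescence read at 667 nm with signal to noise per printed feature.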 The settings on record: 635 nm fluorescence, higher = more signal.
Assay [14] in a line: cell viability in Huh7 cells, primary screen, cytotoxicity control for HCV replication inhibitor project, CellTiter-Glo luminescence, basal, 48 h (AID 1143).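 Also: Huh7 hepatoma cells carrying a hepatitis C replication reporter with no stimulus; test concentration not given here.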 The settings on record: Huh7 HCV replicon, higher = more signal, called active from +8 up or from −8 down.
Assay [15] can be described thus: CREB reporter modulators under forskolin, primary screen, cell-based, PC12, CRE-LacZ reporter, forskolin-stimulated (AID 1146).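 Also: PC12 cells with 6xCRE LacZ reporter stimulated by forskolin 10 µM; beta-galactosidase reporter signal reflecting CREB driven transcription.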 The settings on record: luminescence, 4.5 h, higher = more signal, called active from +8 up or from −8 down.
The target of assay [16] is Streptavidin (Streptomyces avidinii) (UniProt P22629). The assay can be described thus: streptavidin binders on small-molecule microarray, primary screen, artefact control for SMM compound annotation, biophysical, 635/667 nm fluorescence (AID 1147).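 Also: signal reflects streptavidin binding to arrayed compounds as a control protein.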 The settings on record: streptavidin binding, higher = more signal.
Assay [17] is described as follows: small-molecule binders of probe aInhba, primary screen, biochemical, small-molecule microarray, 635/667 nm fluorescence (AID 1148).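 Also: score merges 667nm spot fluorescence with signal-to-noise for antibody binding to printed compounds.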 Particulars: higher = more signal.
In assay [18] the target is Torsin-1A (Homo sapiens) (UniProt O14656). Briefly: torsin A binders from cell lysate, primary screen, small-molecule microarray, wild-type, 635/667 nm (AID 1149). The settings on record: COS7 hTOR1A-WT lysate, 635 nm fluorescence, higher = more signal.
Assay [19] shares this target. Briefly: small-molecule binders of mutant TOR1A in lysate, primary screen, cell lysate, small-molecule microarray, COS7 lysate, 635/667 nm fluorescence (AID 1150).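 Also: score pools 667 nm emission and signal to noise measuring lysate protein binding.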 The settings on record: COS7 hTOR1A mutant lysate, 635 nm fluorescence, higher = more signal.
Assay [20] concerns Sonic hedgehog protein (Shh). The assay can be described thus: small-molecule binders of Shh protein, primary screen, biochemical, small-molecule microarray, 635/667 nm fluorescence (AID 1151).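 Also: Shh protein binding to compounds spotted on small-molecule microarray slides; score combines spot fluorescence intensity with signal-to-noise across triplicate slides.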 The settings on record: small-molecule microarray binding, 635 nm fluorescence; higher = more signal.

As for `O=P(/N=C1/CC(c2ccc(CO)cc2)=CC(c2cccs2)N1Cc1cccc(OC(F)(F)F)c1)(Oc1ccccc1)Oc1ccccc1` (stereo not given), the composite z-score is 0.473 in [1]; 1.31 in assay [2]; -0.528 in assay [3]; 1.24 in assay [4]; 1.28 in assay [5]; 0.661 in assay [6]. In addition, the composite z-score was 0.91 in [7]; 0.838 in assay [8]; -0.565 in [9]; -0.364 in assay [11]; 1.11 in [12]; -0.0586 in assay [13]. Also, the composite z-score in assay [16] is 1.98; in assay [17], -0.0774; in assay [18], 1.85; in assay [19], 1.41; in assay [20] it was 0.0334. The z-score in assay [10] is 1.61; in assay [14], inactive: -4.88; in assay [15] it was inactive: -0.359.
For `O=P(/N=C1/CC(CCCO)=CC(c2ccc(CN3CCCC3)cc2)N1Cc1cc2c(cc1Br)OCO2)(Oc1ccccc1)Oc1ccccc1` (stereo not given), the composite z-score in assay [1] was 0.579; in assay [2], 0.303; in [3] it was -0.521; in assay [4] it was 0.148; in assay [5], 0.23; in assay [6], 0.0738. Besides, the composite z-score in [7] is -0.166; in assay [8], -0.143; in assay [9], -0.0552; in [11], -0.517; in [12] it was 0.108; in assay [13] it was -0.293. The composite z-score in assay [16] was 0.535; in assay [17], 0.0713; in assay [18] it was -0.0828; in [19] it was 0.421; in assay [20], -0.625. In addition, the z-score in [10] is -0.967; in assay [14], inactive: -0.49; in [15] it was inactive: 0.832.
Regarding `CN1/C(=N\P(=O)(Oc2ccccc2)Oc2ccccc2)CC(c2ccc(CO)cc2)=CC1c1cccs1` (stereo not given), the composite z-score in assay [1] is 0.983; in [2], 0.238; in [3], -0.649; in assay [4] it was 0.653; in assay [5], 1.68; in assay [6], -0.161. The composite z-score in assay [7] is 0.395; in assay [8], 0.381; in assay [9] it was 0.196; in [11] it was -0.442; in [12], 0.554; in assay [13], 0.0271. For the same compound, the composite z-score in [16] was determined as 0.476; in assay [17], 0.0342; in assay [18], 0.31; in assay [19], 1.1; in assay [20], 0.22. The results for the z-score in assay [10], in [14] and in assay [15] were 1.41, inactive: -3.21 and inactive: -0.93, respectively.
Consider `CN1/C(=N\P(=O)(Oc2ccccc2)Oc2ccccc2)CC(CCCO)=CC1C1CC1` (stereo not given), for which the composite z-score in assay [1] was 0.989; in [2], 0.386; in assay [3], -0.468; in [4], 0.806; in assay [5], -0.197; in assay [6] it was 0.353. Also, the composite z-score was 0.966 in [7]; 0.684 in [8]; 0.545 in assay [9]; -0.104 in [11]; 0.198 in assay [12]; 0.309 in [13]. For the same compound, the composite z-score was 1.77 in [16]; 0.228 in assay [17]; -0.354 in assay [18]; -0.175 in [19]; -0.138 in assay [20]. The figures for the z-score in assay [10], in [14] and in assay [15] were 0.404, inactive: -1.78 and inactive: -0.0649, respectively.
Take `COP(=O)(/N=C1/CC(CCCO)=CC(c2ccc(CN3CCCC3)cc2)N1C)OC` (stereo not given): the composite z-score in assay [1] is -0.441; in [2], 0.292; in assay [3], -0.149; in [4], -0.536; in assay [5], 2.28; in assay [6], 0.395. In addition, the composite z-score was -0.594 in [7]; 0.248 in [8]; -0.262 in [9]; -0.269 in assay [11]; 0.28 in [12]; 0.264 in assay [13]. Further, the composite z-score in assay [16] is 0.597; in assay [17] it was 0.388; in assay [18] it was 0.182; in [19], 0.152; in [20], -0.0571. In addition, the figures for the z-score in [10], in assay [14] and in [15] were 0.259, inactive: -0.691 and inactive: -0.107, respectively.
For the compound `O=P(/N=C1/CC(CCCO)=CC(C2CC2)N1Cc1sc2ccccc2c1Cl)(Oc1ccccc1)Oc1ccccc1` (stereo not given), the composite z-score in assay [1] stood at 0.4; in assay [2] it was 1.33; in assay [3], 0.0175; in assay [4] it was 0.696; in assay [5] it was 1.54; in assay [6], 1.2. Further, the composite z-score in assay [7] is 0.906; in assay [8], 0.322; in [9], -0.138; in assay [11] it was 0.191; in [12] it was 1.02; in [13], 0.0755. Moreover, the composite z-score is 1.71 in assay [16]; 0.0471 in assay [17]; -0.487 in assay [18]; 0.774 in assay [19]; 0.0009 in assay [20]. The z-score in assay [10] is 1.8; in assay [14], inactive: -2.78; in assay [15], inactive: -0.258.
On to `COP(=O)(/N=C1/CC(CCCO)=CC(C2CC2)N1Cc1cc2c(cc1Br)OCO2)OC` (stereo not given), for which the composite z-score came to 0.32 in assay [1]; 0.0554 in assay [2]; 0.288 in assay [3]; 0.418 in [4]; 0.997 in assay [5]; 0.158 in [6]. The composite z-score is 0.469 in assay [7]; 1.01 in assay [8]; -0.0074 in assay [9]; 0.0617 in assay [11]; 0.652 in [12]; 0.0865 in [13]. Further, the composite z-score is 1.29 in [16]; 0.0697 in assay [17]; 1.81 in [18]; 1.45 in assay [19]; 0.532 in [20]. Besides, the figures for the z-score in assay [10], in assay [14] and in [15] were -0.205, inactive: -1.34 and inactive: 0.0116, respectively.
For the compound `COP(=O)(/N=C1/CC(CCCO)=CC(C2CC2)N1Cc1sc2ccccc2c1Cl)OC` (stereo not given), the composite z-score in assay [1] amounted to 0.595; in assay [2], 1.28; in assay [3], 0.596; in assay [4] it was 1.07; in assay [5] it was 2.43; in assay [6], 0.382. Moreover, the composite z-score in assay [7] was 0.923; in assay [8] it was 1.27; in [9], 0.998; in assay [11], 1.02; in assay [12], 1.39; in assay [13], 0.564. Also, the composite z-score in [16] is 2.21; in assay [17], 1.23; in assay [18], 0.279; in assay [19], 0.0571; in [20] it was 0.3. Besides, the z-score in assay [10] is 1.08; in assay [14] it was inactive: -2.38; in [15], inactive: -1.27.
